From patent US20190292189A1, “LIM KINASE INHIBITORS” (VIRONGY, LLC, priority 2016, published 2019) come the findings set out here.

Sequences of proteins named here, by UniProt entry; tags and fusion partners are left off.
UniProt O75116, whole entry, species assumed: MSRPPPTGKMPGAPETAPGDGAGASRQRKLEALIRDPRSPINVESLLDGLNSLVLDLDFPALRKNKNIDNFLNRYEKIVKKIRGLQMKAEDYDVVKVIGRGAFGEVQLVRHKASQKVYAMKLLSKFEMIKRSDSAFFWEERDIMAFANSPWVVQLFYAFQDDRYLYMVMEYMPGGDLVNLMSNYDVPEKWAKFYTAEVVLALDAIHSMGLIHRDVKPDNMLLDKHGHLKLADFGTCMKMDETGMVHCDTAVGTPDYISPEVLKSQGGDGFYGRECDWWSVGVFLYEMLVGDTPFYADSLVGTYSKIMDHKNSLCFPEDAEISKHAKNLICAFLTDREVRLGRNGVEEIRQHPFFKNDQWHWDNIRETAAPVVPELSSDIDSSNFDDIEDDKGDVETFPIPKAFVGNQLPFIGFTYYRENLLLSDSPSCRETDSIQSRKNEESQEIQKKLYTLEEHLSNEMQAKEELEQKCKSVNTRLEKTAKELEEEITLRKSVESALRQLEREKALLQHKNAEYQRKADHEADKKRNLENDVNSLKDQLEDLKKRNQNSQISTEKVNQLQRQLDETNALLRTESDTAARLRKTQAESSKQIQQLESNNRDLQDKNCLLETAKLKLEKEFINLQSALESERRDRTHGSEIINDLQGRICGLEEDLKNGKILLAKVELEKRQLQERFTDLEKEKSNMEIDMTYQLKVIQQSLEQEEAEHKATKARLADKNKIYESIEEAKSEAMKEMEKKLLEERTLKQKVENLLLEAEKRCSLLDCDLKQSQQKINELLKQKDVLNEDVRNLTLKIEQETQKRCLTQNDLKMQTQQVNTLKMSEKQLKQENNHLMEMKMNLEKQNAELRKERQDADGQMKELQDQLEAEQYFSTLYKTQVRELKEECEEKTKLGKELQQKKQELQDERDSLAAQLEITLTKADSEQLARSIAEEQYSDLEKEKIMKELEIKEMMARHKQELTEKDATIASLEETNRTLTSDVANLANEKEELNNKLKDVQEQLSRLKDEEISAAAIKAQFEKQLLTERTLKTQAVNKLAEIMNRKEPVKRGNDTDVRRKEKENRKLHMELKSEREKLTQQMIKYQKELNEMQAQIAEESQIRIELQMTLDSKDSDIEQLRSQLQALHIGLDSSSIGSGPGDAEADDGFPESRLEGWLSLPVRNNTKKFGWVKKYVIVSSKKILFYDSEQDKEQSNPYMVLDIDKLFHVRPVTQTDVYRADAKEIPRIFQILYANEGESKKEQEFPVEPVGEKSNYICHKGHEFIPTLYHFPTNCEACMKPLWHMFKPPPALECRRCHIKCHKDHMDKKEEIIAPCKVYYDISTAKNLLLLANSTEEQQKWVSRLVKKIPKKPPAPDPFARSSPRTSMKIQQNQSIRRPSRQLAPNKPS

Molecules are shown by their SMILES. Where only a bound is given, the exact number is not on record here.

A word on the IC50: it is the concentration needed to halve the response being measured. A low value points to higher potency.

The target in assay [1] is ROCK-II (Homo sapiens, UniProt O75116). In words: ROCK-II biochemical counter-screen. The following applies: based on IC50 values, ROCK-II vs Limk1. (A counterscreen serves to expose hits that act by an unwanted route or on another target.)
Assay [2] deals with cofilin phosphorylation in A7r5 cells. Briefly: In-cell Western assay of cofilin phosphorylation in A7r5 cells. The format is cell-based. Here is the method:
A7r5 (15,000 cells/well) were plated in a clear-bottomed Packard View black 96-well plate in 100 μl of 10% FBS DMEM:F12 medium and were allowed to attach overnight. The next day, the cells were serum starved in 1% FBS DMEM medium for 2 hr and then treated with the compounds for 1 hr. […] Next day, they were washed twice with PBS-0.1% Tween 20 (PBST) washing solution for 5 min each at room temperature on the orbital shaker, followed by one wash with Licor Blocking Buffer containing 0.05% Tween-20 for 5 min on the shaker at RT. The cells were then incubated with secondary antibody goat anti-rabbit IR800 (1:500 dilution) for 1 hr at RT in the dark (covered the plate with foil) in Licor blocking buffer-containing Tween-20. Following this, cells were washed twice with PBST for 5 min each at room temperature and then once with Licor blocking buffer-containing 0.05% Tween-20. The wells were then incubated with ToPro 3 stain (nucleic acid staining), diluted 1:4000 in Licor blocking buffer or Licor blocking buffer with 0.05% Tween-20 for 30 min at room temperature in the dark. Finally the plates were washed twice with PBS and analyzed using the Odyssey LICOR Infrared Scanner.

Assay [3] in a line: IOP lowering on rat eyes, topical dosing. The following applies: 50 μg topical; at 4 h, compared to the vehicle. The format is in vivo, Brown Norway rats.

`Cc1c[nH]c2ncnc(-c3ccc(NC(=O)Nc4cccc(C(=O)NC(C)C)c4)c(F)c3)c12` [Compound 7k, 3-(3-(2-Fluoro-4-(5-methyl-7H-pyrrolo[2,3-d]pyrimidin-4-yl)phenyl)ureido)-N-isopropylbenzamide]: the “selectivity over ROCK-II” value in assay [1] is given as 43 fold. `Cc1ccc(N(CCO)C(=O)Nc2ccc(-c3ncnc4[nH]cc(C)c34)cc2)cc1` [Compound 18k, 1-(2-Hydroxyethyl)-3-(4-(5-methyl-7H-pyrrolo[2,3-d]pyrimidin-4-yl)phenyl)-1-p-tolylurea] had a half-maximal inhibitory concentration (IC50) in assay [2] of 190 nM. On to `COc1ccc(N(CCO)C(=O)Nc2ccc(-c3ncnc4[nH]cc(C)c34)cc2)cc1` [Compound 18n, 1-(2-hydroxyethyl)-1-(4-methoxyphenyl)-3-(4-(5-methyl-7H-pyrrolo[2,3-d]pyrimidin-4-yl)phenyl)urea], for which, in assay [2], half-maximal inhibition (IC50) was put at 730 nM. For the molecule `Cc1c[nH]c2ncnc(-c3ccc(NC(=O)N(CCN(C)C)c4ccc(Cl)cc4)cc3)c12` [Compound 18r, 1-(4-Chlorophenyl)-1-(2-(dimethylamino)ethyl)-3-(4-(5-methyl-7H-pyrrolo[2,3-d]pyrimidin-4-yl)phenyl)urea], in assay [1], the “selectivity over ROCK-II” value is given as above 500 fold. On to `Cc1[nH]c2ncnc(-c3ccc(NC(=O)N(CCN(C)C)c4ccc(Cl)cc4)c(F)c3)c2c1C` [Compound 18w, 1-(4-Chlorophenyl)-3-(4-(5,6-dimethyl-7H-pyrrolo[2,3-d]pyrimidin-4-yl)-2-fluorophenyl)-1-(2-(dimethylamino)ethyl)urea], for which, in assay [3], the “IOP-lowering effect” value was “significant decreases in IOP”.
